Like-named read-outs stand apart in the source and are kept apart here.
Columns and labels:
[1] = tested on: P. aeruginosa PA01; experiment: MIC, microbroth dilution in Mueller-Hinton broth; format: cell-based; details: Pseudomonas aeruginosa
[2] = tested on: E. coli BW25113; experiment: MIC, microbroth dilution in Mueller-Hinton broth; format: cell-based; details: Escherichia coli, BW25113, read-out: MIC EC, E. coli BW25113; Mueller-Hinton broth (Table 2)

Measured: MIC

CCN1CCN(C(=O)N[C@@H](C(=O)N[C@@H]2C(=O)N3[C@@H]2SC(C)(C)[C@@H]3C(=O)O)c2ccccc2)C(=O)C1=O [piperacillin, reference compound]
6.25 µg/mL: [1]; PA01, read-out: MIC PA | [1]; PA01, read-out: MIC PA − | [2]
